# scFv variants of Ab-14 (light chain) against a SARS-CoV-2 spike peptide

From the AlphaSeq antibody data of Engelhart et al. 2022 (doi:10.1038/s41597-022-01779-4), copy in the FLAb collection.

Antigen: PDVDLGDISGINAS, a 14-residue peptide of the SARS-CoV-2 spike HR2 region.

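The starting antibody came from a phage panning campaign against this peptide. Variants in AAYL50 differ from the parent at up to three CDR positions; double and triple changes were sampled at random. The assay is AlphaSeq: two haploid yeast populations carry antibody and antigen on their surface. Binding brings cells together so that they mate, and sequencing counts the barcode pairs among the diploids. The ratio of observed to expected reads was calibrated, replicate by replicate, on BCL2-family standards whose Kd was known from biolayer interferometry. There are three technical replicates.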

Parent scFv Ab-14: VH joined to VL by a 15-residue (Gly4Ser)3 linker. Changes lie in the light chain CDRs alone.
VH: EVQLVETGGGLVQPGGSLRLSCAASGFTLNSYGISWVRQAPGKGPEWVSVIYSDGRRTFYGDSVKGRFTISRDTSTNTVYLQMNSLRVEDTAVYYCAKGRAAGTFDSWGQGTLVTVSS
VL: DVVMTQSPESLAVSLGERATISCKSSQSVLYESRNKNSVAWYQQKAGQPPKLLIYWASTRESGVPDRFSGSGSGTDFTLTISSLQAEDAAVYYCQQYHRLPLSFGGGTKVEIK

Substitutions are numbered in sequence along the VL above, starting at 1 (not Kabat).
All variants listed here change S58 of the VL, counted from its first residue.
Values are apparent Kd, the geometric mean of the replicates that gave a signal; lower means stronger binding.
"no signal" means that the variant was in the library but no mating with the target was seen in any replicate; the authors take this as a sign of poor binding, and no number exists.
Entries are sorted by rising average, undetected variants last.
Empty control strains, which show no peptide, gave a signal in 18% of pairings with library AAYL50; the median was 15 µM and 95% of these signals were weaker than 970 nM. No background was subtracted.

For W56A+S58L+H98S, the assay gave 1.2 nM (3 of 3 replicates). With K24F+S58K the result was 11 nM (3 of 3 replicates). Variant Q27F+V29W+S58D gave 13 nM (3 of 3 replicates). For K36A+S58Q+S103M, the assay gave 19 nM (3 of 3 replicates). Variant S58Q+E61C gave 21 nM (3 of 3 replicates). Variant N35I+S58N+R99G gave 25 nM (3 of 3 replicates). Variant Q27G+S58A showed 36 nM (3 of 3 replicates). With Y31N+E32A+S58R the result was 41 nM (3 of 3 replicates).

With V29C+S58N+R99V the result was 57 nM (3 of 3 replicates). Variant S28I+V29K+S58Q gave 130 nM (2 of 3 replicates). Variant Y31R+E32D+S58Q gave 130 nM (3 of 3 replicates). For V29H+R34D+S58I, the assay gave 180 nM (3 of 3 replicates). Variant R34C+S58M+E61Y showed 410 nM (1 of 3 replicates). Variant K24F+L30P+S58F gave 840 nM (1 of 3 replicates). Variant S28L+S58R+S62V showed 990 nM (3 of 3 replicates). Variant S25E+S58E+S62P gave 1.1 µM (3 of 3 replicates).

Variant A57V+S58R+L102F showed 1.2 µM (2 of 3 replicates). For K24E+S58A+S103Y, the assay gave 2.5 µM (3 of 3 replicates). With A57D+S58C+P101V the result was 7.4 µM (3 of 3 replicates). Variant S58W+R60F+E61T showed 11 µM (1 of 3 replicates). With R34C+S58G+E61C the result was 22 µM (3 of 3 replicates). For S58M+R99P+L100R, the assay gave 30 µM (2 of 3 replicates). With Y31Q+S58P+L102R the result was 35 µM (2 of 3 replicates). Variant A40Q+S58P+Q96E gave 42 µM (1 of 3 replicates).

For V29T+S58W, the assay gave 2.8 mM (1 of 3 replicates). Variant S25W+S58D+S103L gave no signal (0 of 3 replicates). Variant S26N+S58T+R60T showed no signal (0 of 3 replicates). Variant S38R+S58R+R60W showed no signal (0 of 3 replicates). With K24Q+S38G+S58I the result was no signal (0 of 3 replicates). Variant K24F+S58H+Y97L gave no signal (0 of 3 replicates). With V29R+A40Y+S58A the result was no signal (0 of 3 replicates). Variant S58Y+R60F+L102A gave no signal (0 of 3 replicates).

From the list, the first 4 with no signal in any replicate:

S25W+S58D+S103L: no signal (0 of 3 replicates).
S26N+S58T+R60T: no signal (0 of 3 replicates).
S38R+S58R+R60W: no signal (0 of 3 replicates).
K24Q+S38G+S58I: no signal (0 of 3 replicates).